Patent US10112933B2, “Methods and compositions for treatment of fibrosis” (Baylor College of Medicine, priority 2013, dated 2018)

Protein sequences, listed by entry. Tags and fused reporters are not part of them. Residues count along the entry.
UniProt P40763, whole entry, species assumed: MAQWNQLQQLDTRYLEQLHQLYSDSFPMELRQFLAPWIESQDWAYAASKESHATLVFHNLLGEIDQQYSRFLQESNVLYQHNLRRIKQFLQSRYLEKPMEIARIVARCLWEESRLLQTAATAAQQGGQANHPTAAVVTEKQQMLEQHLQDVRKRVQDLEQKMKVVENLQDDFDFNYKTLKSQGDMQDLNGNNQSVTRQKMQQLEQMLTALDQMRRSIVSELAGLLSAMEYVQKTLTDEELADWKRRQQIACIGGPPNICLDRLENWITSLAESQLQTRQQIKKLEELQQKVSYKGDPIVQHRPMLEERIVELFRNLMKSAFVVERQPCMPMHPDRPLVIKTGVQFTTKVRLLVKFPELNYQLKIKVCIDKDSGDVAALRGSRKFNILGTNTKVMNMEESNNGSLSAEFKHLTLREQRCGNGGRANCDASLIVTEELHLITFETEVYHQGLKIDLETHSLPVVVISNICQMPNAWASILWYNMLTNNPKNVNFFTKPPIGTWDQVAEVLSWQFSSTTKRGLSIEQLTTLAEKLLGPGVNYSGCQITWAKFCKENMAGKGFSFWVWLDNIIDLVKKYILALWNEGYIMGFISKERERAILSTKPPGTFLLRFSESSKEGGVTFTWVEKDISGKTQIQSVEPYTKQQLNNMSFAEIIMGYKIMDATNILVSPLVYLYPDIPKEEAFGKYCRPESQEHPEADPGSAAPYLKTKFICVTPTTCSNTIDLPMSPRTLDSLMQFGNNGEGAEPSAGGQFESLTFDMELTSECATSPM
UniProt P40763, 2-770 limits assumed: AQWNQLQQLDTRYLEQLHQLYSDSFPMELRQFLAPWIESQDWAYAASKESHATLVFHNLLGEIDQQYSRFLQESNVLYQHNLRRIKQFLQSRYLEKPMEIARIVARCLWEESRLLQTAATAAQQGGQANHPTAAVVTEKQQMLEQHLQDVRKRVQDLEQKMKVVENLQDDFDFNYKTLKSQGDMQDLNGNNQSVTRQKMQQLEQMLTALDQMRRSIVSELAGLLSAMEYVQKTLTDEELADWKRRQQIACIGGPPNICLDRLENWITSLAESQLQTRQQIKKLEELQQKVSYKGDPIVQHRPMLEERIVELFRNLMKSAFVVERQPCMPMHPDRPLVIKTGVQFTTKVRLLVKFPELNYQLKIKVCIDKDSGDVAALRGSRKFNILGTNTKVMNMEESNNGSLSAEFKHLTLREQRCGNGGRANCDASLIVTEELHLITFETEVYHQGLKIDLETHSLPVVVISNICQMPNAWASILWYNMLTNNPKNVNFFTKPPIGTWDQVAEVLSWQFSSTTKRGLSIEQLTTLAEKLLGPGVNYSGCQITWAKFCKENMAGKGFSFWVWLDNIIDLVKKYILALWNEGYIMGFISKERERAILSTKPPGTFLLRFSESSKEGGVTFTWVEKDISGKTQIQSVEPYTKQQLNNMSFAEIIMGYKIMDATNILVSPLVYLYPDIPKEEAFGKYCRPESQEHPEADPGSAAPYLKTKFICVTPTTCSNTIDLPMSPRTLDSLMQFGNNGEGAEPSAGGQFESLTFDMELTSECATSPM

Experiments:
[1] = target: recombinant Stat3 (binding to EGFR Y1068 phosphododecapeptide) (Homo sapiens, UniProt P40763); assay: Stat3 SH2/pY-peptide SPR binding inhibition assay; settings: Stat3 500 nM, immobilized EGFR Y1068 phosphododecapeptide; read-out: SPR IC50 (competition with pY-peptide for binding to Stat3)
Procedure: Binding of recombinant Stat3 (500 nM) to a BiaCore sensor chip coated with a phosphododecapeptide based on the amino acid sequence surrounding Y1068 within the EGFR was measured in real time by SPR (Response Units) in the absence (0 μM) or presence of increasing concentrations (0.1 to 1,000 μM) of Cpd3 (panel A), Cpd30 (panel B), Cpd188 (panel C), Cpd3-2 (panel D), Cpd3-7 (panel E) and Cpd30-12 (panel F). Data shown are representative of 2 or more experiments. The equilibrium binding levels obtained in the absence or presence of compounds were normalized (response obtained in the presence of compound÷the response obtained in the absence of compound×100), plotted against the log concentration (nM) of the compounds (panel G). The experimental points fit to a competitive binding curve that uses a four-parameter logistic equation (see exemplary methods for details). These curves were used to calculate IC50 (Table 1).
Stat3 SH2/pY-peptide binding assay. Stat3 binding assays were performed at 25° C. with a BIAcore 3000 biosensor using 20 mM Tris buffer pH 8 containing 2 mM mercaptoethanol and 5% DMSO as the running buffer (Kim et al., 2005). Phosphorylated and control non-phosphorylated biotinylated EGFR derived dodecapeptides based on the sequence surrounding Y1068 (Shao et al., 2004) were immobilized on a streptavidin coated sensor chip (BIAcore inc., Picataway N.J.). The binding of Stat3 was conducted in 20 mM Tris buffer pH 8 containing 2 mM β-mercaptoethanol at a flow rate of 10 uL/min for 1-2 minute. […] IC50 values were determined by plotting % maximum response as a function of log concentration of compound and fitting the experimental points to a competitive binding model using a four parameter logistic equation: R=Rhigh−(Rhigh−Rlow)/(1+conc/A1)^A2, where R=percent response at inhibitor concentration, Rhigh=percent response with no compound, Rlow=percent response at highest compound concentration, A2=fitting parameter (slope) and A1=IC50 (BIAevaluation Software version 4.1). […]

Stat3:hSIE complex = target: T1, Stat3:hSIE complex (Homo sapiens, UniProt P40763); assay: Electrophoretic mobility shift assay (Stat3 DNA binding, hSIE probe); assay type: biochemical; settings: extracts of IL-6-stimulated HepG2 cells, compound 300 μM
T1 construct: endogenous in cells; host or cells: HepG2
Procedure: Electrophoretic mobility shift assays were performed using whole-cell extracts prepared from HepG2 cells without and with stimulation with IL-6 (30 ng/ml) for 30 min. Protein (20 μg) was incubated with radiolabeled duplex oligonucleotide (hSIE) and DMSO without or with the indicated compounds (300 uM) for 60 minutes at 37° C. then separated by PAGE. The gel was dried and autoradiographed; the portion of the gel corresponding to the Stat3-bound hSIE band is shown. Data shown are representative of 2 studies.
Electrophoretic Mobility Shift Assay (EMSA): EMSA was performed using the hSIE radiolabeled duplex oligonucleotide as a probe as described (Tweardy et al., 1995). Briefly, high salt extracts were prepared from HepG2 cells incubated without or with IL-6 (30 ng/ml) for 30 minutes. Protein concentration was determined by Bradford Assay and 20 ug of extract was incubated with compound (300 uM) for 60 minutes at 37° C. […] Gels were dried and autoradiographed.
Once in the nucleus, Stat3 dimers bind to specific DNA elements to activate and, in some instances, repress gene transcription. […] Compounds that bind to the phosphopeptide-binding site of Stat3 might be expected to do the same. […]

Row | IC50 [1] [µM] | Compound | amount of hSIE shifted (Stat3:hSIE band intensity) (Stat3:hSIE complex)
1 | 137 | COC(=O)Cc1c(C)c2ccc(OCc3ccc(C(=O)OC)cc3)c(C)c2oc1=O [Cpd3-7, methyl 4-({[3-(2-methyoxy-2-oxoethyl)-4,8-dimethyl-2-oxo-2H-chromen-7-yl]oxy}methyl)benzoate] | reduced the amount of hSIE shifted by half or greater
2 | 30 | CCN1C(=O)C(=Cc2ccc(-c3ccc(C(=O)O)cc3)o2)SC1=S [Cpd30, 4{5-[(3-ethyl-4-oxo-2-thioxo-1,3-thiazolidin-5-ylidene)methyl]-2-furyl}benzoic acid] | 

Row | Compound | IC50 [1] [µM] | amount of hSIE shifted (Stat3:hSIE band intensity) (Stat3:hSIE complex)
3 | O=C(O)CSc1cc(NS(=O)(=O)c2ccc(C(=O)O)cc2)c2ccccc2c1O [Cpd188, 4-[({3-[(carboxymethyl)thio]-4-hydroxy-1-naphthyl}amino)sulfonyl]benzoic acid] | 20 | 
